According to publication PMC5800871 (European journal of medicinal chemistry, 2017):

Tests used:
panel of 468 kinases = assay: KINOMEscan kinome selectivity profiling; type: binding
[1] = tested on: phosphorylation of ALK, EGFR, Akt and ERK in DFCI032 cells; assay: Western blotting of ALK/EGFR signaling in DFCI032 cells; type: cell-based; conditions: result in words

Question: How did the “binding to ALK and EGFR in KINOMEscan” value (panel of 468 kinases; 1 μM, result in words) turn out when `Cc1cc(Nc2ncc(Cl)c(Nc3ccccc3S(=O)(=O)C(C)C)n2)c(OC(C)C)cc1C1CCNCC1` [Ceritinib] was run?
Answer: The value was “lost affinity for EGFR proteins”.

Question: What about the “S-score(1)” value (panel of 468 kinases; KINOMEscan at 1 μM, 7c 468 kinases, TAE684 353 kinases) of the same molecule?
Answer: Its value is 0.02.

Question: And the “effects on phosphorylation of ALK, EGFR, Akt and ERK” value [1]?
Answer: The value was “suppressed phosphorylation of their primary target respectively but were not able to sufficiently reduce phosphorylation of Akt and ERK”.
